# According to US20060166861A1, “Inclusion compound of porphyrin metal complex and albumin” (priority 2005, published 2006):
# Experiment: Rat blood exchange model, safety in vivo (general symptoms, weight change, blood biochemical values)
# Parameters: species or system Crj: Wistar male rats
# Conditions: rats, 20% blood exchange; until 7 days after the blood exchange; comparison among groups
# Experimental: A rat blood exchange model was used for rHSA-FecycP obtained in Example 1, and safety of rHSA-FecycP in vivo was evaluated by weight change and blood biochemical values as indices.
# rHSA-FecycP obtained in Example 1 was used as a test substance, and recombinant human serum albumin (25% preparation, available from BIPHA CORPORATION, hereinafter, referred to as rHSA) was used as a control substance. The test substance was oxygenated, stored at 4° C., and used within 8 hours after the oxygenation. 25% rHSA was diluted five times with physiological saline (Otsuka normal saline, available from Otsuka Pharmaceutical Factory, Inc.) and prepared into an administration liquid of concentration of 5% in use.
# Crj: Wistar male rats (7 week old) were purchased from Charles River Japan, Inc., and 36 well-grown rats were subjected to a blood exchange test. The rats were classified into three groups of a control group (no blood exchange performed), an rHSA group (blood exchange performed by using rHSA), and a cyc group (blood exchange performed by using rHSA-FecycP) with 12 rats for each group. […]
# Weight of each rat was measured before the blood exchange, and 1 day, 3 days, and 7 days after the completion of the blood exchange. […]
# AST, ALT, LDH, LAP, CRN, and BUN in plasma were quantitatively determined. […]
substance,measurement,value
"rHSA: recombinant human serum albumin (25% preparation, BIPHA CORPORATION), control substance, diluted to 5%",change in weight,no significant difference
